Test results from paper PMC7221417 (European journal of medicinal chemistry, 2020).

Tested on: H295R cells (adrenocortical carcinoma)
Test: Sulforhodamine B
Details: 1 μM, incubated for 1.5 h

Which “cytotoxicity in H295R cells on short incubation” value does the source give for RuCp(PPh3)2(ATZ)BF4 [Complex 2] here?
Its value is “slightly cytotoxic”.
